From ChEMBL document CHEMBL1255565

The chains behind the UniProt entries cited, without tags or fusion partners.
UniProt O75762, whole entry, looked up: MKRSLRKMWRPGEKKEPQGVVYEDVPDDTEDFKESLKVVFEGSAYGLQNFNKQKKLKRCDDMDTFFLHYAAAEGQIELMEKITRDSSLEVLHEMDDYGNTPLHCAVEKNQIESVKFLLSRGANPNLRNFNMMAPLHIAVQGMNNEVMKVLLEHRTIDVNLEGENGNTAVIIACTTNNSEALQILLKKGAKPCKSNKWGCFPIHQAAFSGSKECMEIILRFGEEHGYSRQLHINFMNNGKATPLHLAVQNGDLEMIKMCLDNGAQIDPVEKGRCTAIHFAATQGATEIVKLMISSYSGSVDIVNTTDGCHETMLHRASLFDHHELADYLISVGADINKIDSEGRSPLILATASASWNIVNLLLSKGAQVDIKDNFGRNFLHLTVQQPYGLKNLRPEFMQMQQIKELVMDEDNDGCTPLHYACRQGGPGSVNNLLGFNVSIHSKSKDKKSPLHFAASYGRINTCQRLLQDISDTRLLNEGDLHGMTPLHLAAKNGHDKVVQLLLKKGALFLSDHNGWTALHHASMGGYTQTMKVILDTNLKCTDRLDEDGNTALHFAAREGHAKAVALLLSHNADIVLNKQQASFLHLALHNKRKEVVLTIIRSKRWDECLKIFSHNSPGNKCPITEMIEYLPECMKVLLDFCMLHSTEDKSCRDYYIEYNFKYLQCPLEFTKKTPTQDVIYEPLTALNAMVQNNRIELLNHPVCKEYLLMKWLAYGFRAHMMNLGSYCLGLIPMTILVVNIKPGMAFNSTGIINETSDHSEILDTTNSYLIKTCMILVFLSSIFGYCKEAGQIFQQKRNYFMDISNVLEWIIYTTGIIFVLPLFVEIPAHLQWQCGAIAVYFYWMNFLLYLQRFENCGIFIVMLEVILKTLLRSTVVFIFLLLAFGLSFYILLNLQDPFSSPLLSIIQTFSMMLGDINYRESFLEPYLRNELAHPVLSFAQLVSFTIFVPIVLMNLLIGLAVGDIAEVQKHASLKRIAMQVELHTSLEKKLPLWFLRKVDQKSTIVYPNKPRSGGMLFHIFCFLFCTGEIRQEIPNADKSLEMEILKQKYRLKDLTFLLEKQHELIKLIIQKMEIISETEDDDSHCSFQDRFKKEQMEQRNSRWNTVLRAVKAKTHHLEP

Target: Transient receptor potential cation channel subfamily A member 1 (Homo sapiens, UniProt O75762)
Assay: Agonist activity at human TRPA1 expressed in T-REx-HEK293 cells at -75 mV holding potential by patch-clamp electrophysiology

`S=C=NCc1ccccc1` gave a pEC50 of 4.56.
